What all share (assay type): functional, cell-based
In test [1] the target is T1, Mu-type opioid receptor (Homo sapiens, UniProt P35372). Nature of the test: Agonist activity at human mu opioid receptor expressed in CHOK1 cells coexpressing Galpha15 assessed as increase in intracellular calcium flux by measuring Emax in the presence of mu opioid receptor antagonist naloxone and incubated for 1 hr measured for 90 secs at 1.5 sec interval by FLIPR assay. Background: A change in cytosolic calcium serves as a functional read-out for many receptors and channels.

Chains of the proteins cited; added tags and fusions are not shown.
UniProt P35372, whole entry: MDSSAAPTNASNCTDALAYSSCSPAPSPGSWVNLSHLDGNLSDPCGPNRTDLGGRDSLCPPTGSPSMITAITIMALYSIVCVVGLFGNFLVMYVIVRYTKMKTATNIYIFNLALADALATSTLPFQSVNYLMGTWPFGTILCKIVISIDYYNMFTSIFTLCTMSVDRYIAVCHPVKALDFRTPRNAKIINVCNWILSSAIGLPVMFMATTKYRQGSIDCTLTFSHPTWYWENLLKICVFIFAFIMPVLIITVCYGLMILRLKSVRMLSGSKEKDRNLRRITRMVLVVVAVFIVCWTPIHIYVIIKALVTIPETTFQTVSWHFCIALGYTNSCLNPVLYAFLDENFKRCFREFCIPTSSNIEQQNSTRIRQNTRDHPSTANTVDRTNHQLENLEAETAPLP

For test [2], the target named is T1, Mu-type opioid receptor. In words: Agonist activity at human mu opioid receptor expressed in CHOK1 cells coexpressing Galpha15 assessed as intracellular calcium AUC (0 to 90 secs) in the presence of mu opioid receptor antagonist naltrexone by FLIPR assay relative to morphine.
The target in test [3] is T1, Mu-type opioid receptor. Nature of the test: Agonist activity at human mu opioid receptor expressed in CHOK1 cells coexpressing Galpha15 assessed as increase in intracellular calcium flux by measuring Emax in the presence of mu opioid receptor antagonist naltrexone and incubated for 1 hr measured for 90 secs at 1.5 sec interval by FLIPR assay.

With `CCc1ccccc1Nc1nc(-c2sc(C)nc2C)cs1`, the figures for the Emax on Mu-type opioid receptor [1] and at Mu-type opioid receptor [3] were 10000 to 14000 and 14000 to 18000, respectively. Also, the Activity on Mu-type opioid receptor [2] was 70.7 to 90.9%.

For the origin of these results see ChEMBL document CHEMBL4390642, “The in vivo antinociceptive and μ-opioid receptor activating effects of the combination of N-phenyl-2',4'-dimethyl-4,5'-bi-1,3-thiazol-2-amines and naloxone” (Eur J Med Chem, 2019).
